By UniProt entry, the sequences of proteins in these tests, tags left out.
UniProt Q01959, whole entry: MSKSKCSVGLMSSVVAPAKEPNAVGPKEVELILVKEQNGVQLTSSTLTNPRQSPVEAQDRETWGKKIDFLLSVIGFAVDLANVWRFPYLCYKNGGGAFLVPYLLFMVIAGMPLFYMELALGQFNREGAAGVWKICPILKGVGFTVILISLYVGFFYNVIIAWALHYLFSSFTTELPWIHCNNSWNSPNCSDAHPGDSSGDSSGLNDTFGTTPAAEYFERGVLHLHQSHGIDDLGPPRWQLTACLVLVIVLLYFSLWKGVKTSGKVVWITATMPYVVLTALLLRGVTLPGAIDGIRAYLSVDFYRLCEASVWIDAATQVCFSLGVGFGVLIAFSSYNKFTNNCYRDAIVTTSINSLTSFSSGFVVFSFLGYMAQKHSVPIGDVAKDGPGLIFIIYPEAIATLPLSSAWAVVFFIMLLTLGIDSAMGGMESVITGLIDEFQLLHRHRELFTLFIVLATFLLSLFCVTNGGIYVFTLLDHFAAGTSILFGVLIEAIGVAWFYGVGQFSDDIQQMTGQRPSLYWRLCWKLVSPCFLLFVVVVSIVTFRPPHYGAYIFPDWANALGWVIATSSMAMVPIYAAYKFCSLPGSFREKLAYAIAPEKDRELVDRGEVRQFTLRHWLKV

In patent US9908897B2, “Spirocyclic derivatives” (CHRONOS THERAPEUTICS LIMITED, priority 2014, dated 2018):

Molecular target: human dopamine transporter (DAT) (Homo sapiens (Human), UniProt Q01959)
Assay: Scintillation Proximity Assay (SPA) competition binding, human DAT
Details: recombinant hDAT-CHO membranes, [3H]WIN-35,428
From the text: Measure of Affinity to the Human Transporters DAT, NET and SERT
Affinity is expressed in terms of inhibition constant (Ki) of the compounds of the invention for DAT, NET and SERT, and it is typically calculated from the IC50 values obtained in competition experiments using Cheng and Prusoff equation (Cheng and Prusoff, Biochem. Pharmacol. 22:3099, 1973). In the context of the present invention pKi values (corresponding to the antilogarithm of Ki) are used instead of Ki; pKi are only estimated to be accurate to about 0.3 log unit.
Scintillation Proximity Assay (SPA) for Human DAT, NET and SERT Binding
Chinese Hamster Ovary (CHO) cells stably expressing either human DAT (hDAT-CHO) or human NET (hNET-CHO) or human SERT (hSERT-CHO) are used for the membrane preparations for radioligand binding assays using Scintillation proximity Assay (SPA) technique. Each cell line is cultured independently in F-12K Nutrient Mixture containing 10% of Fetal Bovine Serum (FBS) supplemented with 450 μg/ml G-418. When cells are at 70-80% of confluence 3 mM Na Butyrate was added to the cell culture medium. After 24 h of incubation, the culture medium was removed and the cells detached with Versene (DAT) or by scraping (NET and SERT). Cell suspension is centrifuged at 41,000 g for 10 minutes at 4° C. The resultant pellets are re-suspended in 15 volumes of Ice-cold buffer (20 mM HEPES, 145 mM NaCl, 5 mM KCl, pH7.3), homogenized using an Ultra Turrax homogeniser and centrifuged as before. The resultant membrane pellets are re-suspended in up to 15 volume of ice-cold buffer, incubated for 20 minutes at 37-C and centrifuged as before at 41,000 g. The final membrane pellets are re-suspended into 5-10 volumes of ice-cold buffer, dispensed into 0.5 ml aliquots and stored at −80° C. until use. Protein concentration for each preparation is determined using Bio-Rad Protein Assay kit.
The affinity of the compounds of the invention to the human DAT or NET or SERT transporters is assessed by using the [^3H]WIN-35,428 or [^3H]nisoxetine or [^3H]citalopram binding assays in recombinant human DAT, NET and SERT membranes with the SPA technology. The final assay volume is 50 μL in 384 well plates.
Briefly, 0.5 μL of test compound in neat DMSO or 0.5 μL of DMSO for total binding (TB) or 0.5 μL of indatraline 1 mM (10 μM final concentration) for non specific binding (NSB) are added to the assay plate. 50 μL of the SPA mixture is added to each well, containing: 30 μg/mL or 10 μg/mL or 25 μg/mL DAT, NET, SERT membranes, respectively; 5 nM [^3H]WIN-35,428 or 5 nM [^3H]nisoxetine or 1 nM [^3H]citalopram, for DAT, NET, SERT assay, respectively; 2.5 mg/mL or 1 mg/mL or 4 mg/mL WGA-PVT SPA beads (PerkinElmer RPNQ0001, for DAT, NET, SERT assay, respectively. All components are added to Assay Buffer (20 mM HEPES pH 7.4, 145 mM NaCl, 5 mM KCl, 0.01% Pluronic F-127). 0.02% BSA was used for DAT binding only. Plates are sealed with Topseal A and centrifuged 1 min, 800 rpm. Plates are loaded into a 1450 Microbeta TriLux (Perkin-Elmer) plate reader and the radioactivity counted after at least 4 hrs or overnight incubation at room temperature. Curve fitting and IC50 estimations are performed using a four parameter model in XLfit (IDBS, Guilford, UK) for Microdoft Excel (Microsoft, Redmond, Wash.).

Structure (SMILES)	IC50 [nM]	pIC50 DAT
O[C@H]1CNCC[C@@]12CCN(c1nc(Oc3cccc(F)c3)cc(C(F)(F)F)n1)C2 (single isomer, unassigned) [Example 99, 2-[4-(3-fluorophenoxy)-6-(trifluoromethyl)pyrimidin-2-yl]-2,8-diazaspiro[4.5]decan-6-ol]	8.71	–
O[C@H]1CNCC[C@@]12CCN(c1nc(Oc3cccc(F)c3)cc(C(F)(F)F)n1)C2 (single isomer, unassigned) [Example 100, 2-[4-(3-fluorophenoxy)-6-(trifluoromethyl)pyrimidin-2-yl]-2,8-diazaspiro[4.5]decan-6-ol]	11.2	–
O[C@H]1CNCC[C@@]12CCN(c1nc(Oc3cccc(F)c3)cc(C(F)(F)F)n1)C2 (single isomer, unassigned) [Example 101, 2-[4-(3-fluorophenoxy)-6-(trifluoromethyl)pyrimidin-2-yl]-2,8-diazaspiro[4.5]decan-6-ol]	6.92	–
OC1CNCCC12CCN(c1nc(Oc3cccc(F)c3)cc(C(F)(F)F)n1)C2 (centres unmarked) [Example 96, 2-[4-(3-fluorophenoxy)-6-(trifluoromethyl)pyrimidin-2-yl]-2,8-diazaspiro[4.5]decan-6-ol]	–	7.95
OC1CNCCC12CCN(c1nc(Oc3cccc(F)c3)cc(C(F)(F)F)n1)C2 (centres unmarked) [Example 97, 2-[4-(3-fluorophenoxy)-6-(trifluoromethyl)pyrimidin-2-yl]-2,8-diazaspiro[4.5]decan-6-ol]	–	8.41
